Assay results published in patent US6319894A, “Complexes and combinations of fetuin with therapeutic agents” (The Picower Institute for Medical Research, priority 1997, dated 2001).

Tested on: LPS-stimulated RAW 264.7 cells (inducible nitric oxide synthase, iNOS)
Test: NO / nitrite production (Griess reaction, iNOS activity) in LPS-stimulated RAW 264.7 cells
Type: cell-based, murine
Details: glycoprotein 2.5 μg/ml; CNI-1493 2.0 μM; FIG. 13
Description: Typically, cultures were maintained in 150-mm plates with 30 mls culture medium until they reached 80-90% confluence, and were then subjected to different experimental protocols. […] The incubation was continued for another 24 hours before subjecting the cultures to further experiments.
LPS (endotoxin) was sonicated for 10 minutes and added to culture media to achieve the desired final concentration, typically 100 ng/ml.
Inducible nitric oxide synthase activity (iNOS) was assayed indirectly by measuring NO^2- production. NO^2- was measured by a colorimetric assay based on the Griess reaction. […] The optical density was read at 560 nm after 10 min, and NO^2- concentration was determined with reference to a standard curve by using concentrations of 1.5 to 50 μM sodium nitrite in culture medium.

Substance: albumin: listed among other glycoproteins, net negatively charged at physiological pH
- augmentation of CNI-1493 activity (nitrite production): only fetuin was effective in augmenting CNI-1493 therapeutic activity
